Measurements: ChEMBL document CHEMBL5131460, “Glenthenamines A-F: Enamine Pyranonaphthoquinones from the Australian Pasture Plant Derived Streptomyces sp. CMB-PB042” (J Nat Prod, 2022)

Test: Gain in sensitivity, ratio of IC50 for reversal of P-gp mediated doxorubicin resistance in human SW620/AD300 cells overexpressing P-gp by measuring doxorubicin IC50 in absence of compound to IC50 for reversal of P-gp mediated doxorubicin resistance in human SW620/AD300 cells overexpressing P-gp by measuring doxorubicin IC50 in presence of compound
Format: cell-based

Structure (SMILES) | Ratio IC50
C[C@H]1OC(CC(=O)O)=Cc2c1c(O)c1c3c(c4n(c23)[C@H]([C@@H](C)O)CC4)C=CC1=O | 3.9
C[C@@H]1OC(CC(=O)O)=Cc2c1c(O)c1c3c(c4n(c23)[C@H]([C@@H](C)O)CC4)C=CC1=O | 5.7
C[C@@H]1O[C@@H](CC(=O)O)C(=O)c2c1c(O)c1c3c(c4n(c23)[C@H]([C@@H](C)O)CC4)C=CC1=O | 3.8
C[C@@H](O)[C@@H]1CCc2c3c4c(c(O)c(O)c(C[C@@H](O)CC(=O)O)c4n21)C(=O)C=C3 | 1.28
C[C@H]1O[C@]2(C)CC(=O)O[C@]2(C)c2c1c(O)c1c3c(c4n(c23)[C@@H]([C@@H](C)O)CC4)C=CC1=O | 0.75
C[C@H]1Oc2c(O)c3c4c(c5n(c4c2C[C@H](CC(=O)O)O1)[C@H]([C@@H](C)O)CC5)C=CC3=O | 1.14
COC(=O)C[C@H]1Cc2c(c(O)c3c4c(c5n(c24)[C@H]([C@@H](C)O)CC5)C=CC3=O)[C@H](C)O1 | 4.8
C[C@H]1O[C@H](CC(=O)O)Cc2c1c(O)c1c3c(c4n(c23)[C@@H]([C@@H](C)O)CC4)C=CC1=O | 3.7
